Measurements from patent publication US20210284958A1, “CULTURE MEDIUM FOR ASSISTED REPRODUCTIVE TECHNOLOGY” (priority 2018, published 2021).

Tested on: sperms and ovum-cumulus cell complexes (COCs) of C57BU/6N mice
Experiment: In vitro fertilization test (sperm preculture and insemination in albumin-containing HTF medium)
Format: cell-based
Settings: Test example 2; 0.5 w/v % albumin in HTF medium; caprylic acid removed or re-added; FIGS. 1 and 2
Description: Those solutions were diluted with HTF medium to give 0.5 w/v % of albumin concentration. 200 μL of the resulting media were overlaid with mineral oil and allowed to equilibrate overnight at 37° C. under 6 v/v % CO2. The resulting media were used for sperm preculture and in vitro fertilization. […]/6N male mice (Japan SLC) were sacrificed and the cauda epididymides were excised. Sperm masses obtained by incising the ductus epididymis of the middle of the cauda epididymis were collected in 200 μL of HTF medium containing 0.1 w/v % polyvinyl alcohol (PVA) under mineral oil. The collected sperm masses were incubated at 37° C. under 6 v/v % CO2 for 10 minutes to disperse homogeneously. The sperms obtained in the above 2.2 were added into the medium prepared in the above 2.1 to give 2×10^6 sperms/mL and incubated at 37° C. under 6 v/v % CO2 for 1 hour until in vitro fertilization. […] After insemination at 37° C. under 6 v/v % CO2 for 6 hours, ova in which the second polar body and the male and female pronuclei were observed were determined as fertilized ova, and the fertilization rate was calculated by the following equation.

Row | Substance | in vitro fertilization rate
1 | Example 1: HSA treated with the ion-exchange resin, caprylic acid removed; 5 w/v % albumin solution (pH 7.4) | superior to the albumin of Comparative Examples 1 and 2
2 | Example 2: rHA treated with the ion-exchange resin, caprylic acid removed; 5 w/v % albumin solution (pH 7.4) | superior to the albumin of Comparative Examples 1 and 2
